# Reference: PubChem BioAssay AID651582 (Sanford-Burnham Center for Chemical Genomics, 2012)
# Only a part is listed here, and it is no random draw. The source made the active and inactive calls.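 How the source made its calls: active means pattern-corrected inhibition of lipid staining of at least 50% with the nuclear-stain viability signal not falling by more than 50%; inactive means the rest, inconclusive results apart.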
# Test: inhibitors of triacylglycerol accumulation, primary screen, cell-based, uHTS, fluorescence, H9c2 (AID 651582);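 further: 0% = DMSO wells and 100% = triacsin C control wells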
# Details: H9c2 cells, Nile Red lipid (TAG) fluorescence; at 12.5 µM; hits give high values; cells loaded with 200 µM oleic acid
row,SMILES,inhibition
1,CN(CCCl)Cc1cc(Cl)c(NC2=NCCN2)c(Cl)c1,inactive: 6.86%
2,O=P1(N(CCCl)CCCl)NCCC(C(F)(F)F)O1 (configuration not stated),inactive: 4.16%
3,Clc1n[nH]nc1-c1nn[nH][15n]1,inactive: 1.33%
4,CC(C)(C)C(=O)NC(Sc1ncccn1)C(Cl)(Cl)Cl (configuration not stated),inactive: 7.08%
5,O=[N+]([O-])c1cc([N+](=O)[O-])c(-c2cnn(-c3ccccc3)c2)c([N+](=O)[O-])c1,inactive: 30.9%
6,COc1ccccc1CNC(=O)COC(=O)C(O)(c1ccccc1)c1ccccc1,inactive: 1.85%
7,CC(C)/C=N\N=C(\N)N[N+](=O)[O-],inactive: -4.16%
8,CN(C(=O)Cc1ccc(Cl)c(Cl)c1)[C@@H]1CCCC[C@H]1N1CCCC1,inactive: -3.08%
9,Cc1nc2ccc3ccccc3c2s1.O=[N+]([O-])c1cc([N+](=O)[O-])c(O)c([N+](=O)[O-])c1,inactive: 9.31%
10,CC1(CBr)Cn2c(nc3ccccc3c2=O)S1 (configuration not stated),inactive: 0.2%
11,O=C(OC1CN2CCC1CC2)c1ccc(Cl)cc1 (configuration not stated),inactive: 37.8%
12,COc1cc(C(=O)NCC2(N3CCOCC3)CCCCC2)cc(Cl)c1OC(C)C,inactive: -1.65%
13,O=[As](O)(O)c1cccnc1,inactive: -1.23%
14,COc1ccccc1OP(C)(=O)Nc1cccc(Br)c1 (configuration not stated),inactive: -13.7%
15,O=[As](O)(c1cccc(O)c1)c1cccc(O)c1,inactive: 8.41%
16,Cc1cccc(OCC(=O)OC2CN3CCC2CC3)c1 (configuration not stated),inactive: 8.26%
17,CP(=O)(Nc1cccc(Br)c1)Oc1ccccc1 (configuration not stated),inactive: -22.6%
18,Cc1ccc(NCCc2c([N+](=O)[O-])cc([N+](=O)[O-])cc2[N+](=O)[O-])cc1,inactive: 11.9%
19,Cc1ccc(C)c(NP(C)(=O)Oc2ccccc2)c1 (configuration not stated),inactive: -61%
20,O=C(O)c1cccc(Nc2c([N+](=O)[O-])cc([N+](=O)[O-])cc2[N+](=O)[O-])c1,inactive: -0.764%
21,O=P(Nc1nccs1)(Oc1ccccc1)Oc1ccccc1,inactive: -22.5%
22,CS(=O)(=O)c1cc([N+](=O)[O-])c2no[n+]([O-])c2c1,inactive: 6.63%
23,Nc1ccccc1[As](=O)(O)c1ccccc1,inactive: 2.07%
24,NC(=O)Nc1ccc([As](=O)(O)O)cc1,inactive: -5.51%
25,N#CCCN(C(=O)COC(=O)C(O)(c1ccccc1)c1ccccc1)c1ccc(F)cc1,inactive: 10.9%
26,CN(C(=O)Cc1ccccc1)[C@@H]1CC[C@]2(CCCO2)C[C@H]1N1CCCC1,inactive: -11.2%
27,CN(C(=O)Cc1ccc(Cl)c(Cl)c1)[C@H]1CC[C@@]2(CCCO2)C[C@@H]1N1CCCC1,inactive: 5.36%
